# Antibody variant affinities, Ab-95 light chain, assay 2

From the AlphaSeq antibody data of Engelhart et al. 2022 (doi:10.1038/s41597-022-01779-4), copy in the FLAb collection.

Antigen: PDVDLGDISGINAS, a 14-residue peptide of the SARS-CoV-2 spike HR2 region.

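Phage display of a naive human antibody library on the peptide gave the parent. The library (AAYL52) carries one to three amino acid substitutions per variant, with no insertions or deletions. In AlphaSeq, yeast of one mating type display the scFv and yeast of the other type display the target. After mating in shaken culture at 30 °C for 16 h, diploids were selected and their barcode pairs sequenced. A regression on co-assayed BCL2-family reference pairs converts the normalised counts of each replicate to an apparent Kd. The assay was run in three technical replicates.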

The variants keep the heavy chain, the linker and the frameworks of Ab-95 (scFv order VH, three GGGGS repeats, VL).
VH: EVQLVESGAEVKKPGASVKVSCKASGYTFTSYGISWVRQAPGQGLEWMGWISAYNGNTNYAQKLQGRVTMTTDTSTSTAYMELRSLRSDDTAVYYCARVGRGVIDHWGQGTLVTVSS
VL: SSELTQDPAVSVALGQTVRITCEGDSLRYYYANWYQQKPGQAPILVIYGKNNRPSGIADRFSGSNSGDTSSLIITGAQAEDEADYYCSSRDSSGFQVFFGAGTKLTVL

The parent's light chain CDRs are EGDSLRYYYAN, GKNNRPS, SSRDSSGFQVF; each variant's own CDRs replace them letter for letter. The read-out is the apparent dissociation constant on a log10 scale (nM): the lower, the stronger. A mean of the replicates is given; it leaves out those without a signal. A pair that was not seen in that replicate is written "nd"; this usually means weak binding, but a binder can also be missed.

CDR-L1,CDR-L2,CDR-L3,log10 Kd (nM) by replicate,"mean, log10 nM",empty controls
EGDSLEYYYAN,GKNNRPS,SSRDSSGDQWF,2.88 / 2.44 / 2.37,2.56,1 of 9 (2.91)
EGDSLPDYYAN,GKNNRPS,SSRDMSGFQVF,1.40 / 1.49 / 1.08,1.32,3 of 9 (3.99)
YGDSLRYYYAD,GKQNRPS,SSRDSSGFQVF,3.16 / 3.95 / nd,3.56,2 of 9 (2.97)
EHDSLRWYYAN,GKNNRPS,SSRDLSGFQVF,3.35 / 3.45 / 2.52,3.10,3 of 9 (3.86)
EGDSLRYYYAN,GKDNRPS,SERDSSGFQVF,2.76 / nd / 2.94,2.85,5 of 9 (3.94)
EGDSLRYYYAN,GKNERPS,SSPLSSGFQVF,2.82 / 2.39 / 2.45,2.55,2 of 9 (4.23)
EGDSLRYYYAM,GFNNRPS,SSRDSSGNQVF,4.16 / 5.18 / 4.59,4.64,0 of 9
EGDSTRYYYAN,GKNNRPS,SSRDRSVFQVF,nd / nd / 3.10,3.10,2 of 9 (3.83)
EGGSLRYYYAN,GKNNRPS,SFRDSSGFQYF,3.04 / 2.30 / 2.10,2.48,7 of 9 (4.54)
EGDSDRRYYAN,GKNCRPS,SSRDSSGFQVF,4.64 / 3.65 / 2.38,3.56,5 of 9 (3.90)
RGDSLRYYYAN,GKGNRPS,SSRDSSGFQVF,1.81 / 1.95 / 1.29,1.68,1 of 9 (1.68)
EGTSLRYYYAN,GKNNRPS,SSRDSMGFQQF,3.43 / 3.21 / nd,3.32,0 of 9
EGMGLRYYYAN,GKNNRPS,ESRDSSGFQVF,3.62 / 4.29 / 3.71,3.87,1 of 9 (2.74)
EGDSLRYYYAN,GKNNRIS,SSRDSSGFQEF,4.28 / nd / nd,4.28,2 of 9 (3.35)
EGDSVRHYYAN,GKNDRPS,SSRDSSGFQVF,nd / 4.85 / nd,4.85,5 of 9 (3.98)
EGDSLDYYYAN,GKNNRPS,SSRDLSGEQVF,2.94 / 3.09 / 2.75,2.93,6 of 9 (3.65)
EGDSLRRYYAN,GKNNRPS,HSRDRSGFQVF,nd / nd / nd,nd,2 of 9 (4.20)
EMDSDRYYYAN,GKNNRPS,SSRDSSGFQVE,2.75 / 4.71 / 3.05,3.50,3 of 9 (3.86)
EGYSLRYYYAN,GKNNRPV,SSRDISGFQVF,nd / 3.31 / nd,3.31,0 of 9
EGDSLRYYYAT,GKNNRPS,SCRDTSGFQVF,4.21 / nd / nd,4.21,0 of 9
EGDSLRYYYAN,GFNARPS,SSRDSSGFQVF,3.33 / 3.31 / 3.05,3.23,4 of 9 (4.47)
EGDSLRYYYAN,IKNNRPS,SSRDNSPFQVF,nd / 4.48 / nd,4.48,1 of 9 (3.50)
EGDSLRYYYAN,GKNNRMS,SSRDPSGIQVF,nd / nd / 4.28,4.28,2 of 9 (5.08)
EGDSLRYHYAN,GKNNRPS,ASRDSSAFQVF,1.70 / 1.52 / 1.54,1.59,3 of 9 (3.44)
EGDSLNYIYAN,GKNNRPS,SVRDSSGFQVF,2.04 / 1.75 / 1.36,1.72,3 of 9 (4.29)
EGDSLRYYYAN,GKNNRPF,SSRDSSWFQEF,3.98 / 5.12 / nd,4.55,2 of 9 (5.04)
EGDNFRYYYAN,GKNNLPS,SSRDSSGFQVF,nd / 3.68 / nd,3.68,1 of 9 (3.62)
EGDSLRYYYAC,GKNNRPS,SERDSSGFQYF,4.40 / nd / nd,4.40,0 of 9
EGDSLRYYIAN,GKENRPS,SSRDGSGFQVF,2.85 / nd / nd,2.85,2 of 9 (4.01)
VGDSLRYYYGN,GKNNRPS,ISRDSSGFQVF,nd / nd / nd,nd,3 of 9 (3.94)
ESDSLRYYYAN,GKNNRPS,SSRDSAGFEVF,3.42 / 2.45 / 3.49,3.12,1 of 9 (3.49)
EGDSLNYYYAN,LKNNRPS,PSRDSSGFQVF,3.27 / nd / nd,3.27,2 of 9 (3.34)
EGDSLRDYYAN,GKNNRPS,SSRDSSGSNVF,1.75 / 1.42 / 1.05,1.41,4 of 9 (4.07)
EGDSLRYDYAN,GGNNRPS,SSRDSSGFRVF,2.74 / 2.16 / 2.86,2.59,2 of 9 (4.80)
EGDSLRYGYAN,GKNNRPS,SSRDPSGIQVF,2.30 / 2.26 / 3.41,2.66,0 of 9
EGDSLRYECAN,GKNNLPS,SSRDSSGFQVF,2.20 / 2.72 / 2.64,2.52,2 of 9 (3.95)
EGYSLRYYYLN,GKNNHPS,SSRDSSGFQVF,5.18 / 5.72 / nd,5.45,4 of 9 (3.86)
EGDSLRYYSAN,GKNNRNS,SSTDSSGFQVF,3.91 / 3.76 / 4.16,3.94,2 of 9 (4.40)
EGPSVRYYYAN,GKNNRPS,SSRDSSGFRVF,3.88 / nd / nd,3.88,2 of 9 (4.00)
EGDSLRYYYAY,GKNNRPS,SSRFSSGFQVF,1.52 / 1.73 / 1.07,1.44,2 of 9 (2.94)
TGDSLRYYYAN,GKNNRPS,SSRESSGFQVK,nd / nd / nd,nd,1 of 9 (3.82)
EGDSLRYYWAN,GKNNRPS,SGIDSSGFQVF,3.01 / 2.91 / 2.20,2.71,2 of 9 (4.40)
EEDSLRYYYAN,GKNNRYS,SSRDSSGFQCF,nd / 4.09 / nd,4.09,4 of 9 (4.55)
EGDSHRYKYAN,GKNNRPS,SSRDASGFQVF,2.56 / 2.36 / 1.79,2.24,0 of 9
NGDSLRYYYAN,GKNKRPS,SSRDSKGFQVF,3.25 / 3.30 / nd,3.28,0 of 9
EGDSLRYYYAN,GKNNRPS,SSRDSIGFQEK,3.20 / nd / nd,3.20,1 of 9 (2.72)
EGDSLRYYYAN,GKNTRPS,SQRDSSGFQVG,nd / nd / nd,nd,0 of 9

Repeated from above, the 8 best binders with a signal in all replicates:

{"CDR-L1": "EGDSLPDYYAN", "CDR-L2": "GKNNRPS", "CDR-L3": "SSRDMSGFQVF", "log10 Kd (nM) by replicate": "1.40 / 1.49 / 1.08", "mean, log10 nM": "1.32", "empty controls": "3 of 9 (3.99)"}
{"CDR-L1": "EGDSLRDYYAN", "CDR-L2": "GKNNRPS", "CDR-L3": "SSRDSSGSNVF", "log10 Kd (nM) by replicate": "1.75 / 1.42 / 1.05", "mean, log10 nM": "1.41", "empty controls": "4 of 9 (4.07)"}
{"CDR-L1": "EGDSLRYYYAY", "CDR-L2": "GKNNRPS", "CDR-L3": "SSRFSSGFQVF", "log10 Kd (nM) by replicate": "1.52 / 1.73 / 1.07", "mean, log10 nM": "1.44", "empty controls": "2 of 9 (2.94)"}
{"CDR-L1": "EGDSLRYHYAN", "CDR-L2": "GKNNRPS", "CDR-L3": "ASRDSSAFQVF", "log10 Kd (nM) by replicate": "1.70 / 1.52 / 1.54", "mean, log10 nM": "1.59", "empty controls": "3 of 9 (3.44)"}
{"CDR-L1": "RGDSLRYYYAN", "CDR-L2": "GKGNRPS", "CDR-L3": "SSRDSSGFQVF", "log10 Kd (nM) by replicate": "1.81 / 1.95 / 1.29", "mean, log10 nM": "1.68", "empty controls": "1 of 9 (1.68)"}
{"CDR-L1": "EGDSLNYIYAN", "CDR-L2": "GKNNRPS", "CDR-L3": "SVRDSSGFQVF", "log10 Kd (nM) by replicate": "2.04 / 1.75 / 1.36", "mean, log10 nM": "1.72", "empty controls": "3 of 9 (4.29)"}
{"CDR-L1": "EGDSHRYKYAN", "CDR-L2": "GKNNRPS", "CDR-L3": "SSRDASGFQVF", "log10 Kd (nM) by replicate": "2.56 / 2.36 / 1.79", "mean, log10 nM": "2.24", "empty controls": "0 of 9"}
{"CDR-L1": "EGGSLRYYYAN", "CDR-L2": "GKNNRPS", "CDR-L3": "SFRDSSGFQYF", "log10 Kd (nM) by replicate": "3.04 / 2.30 / 2.10", "mean, log10 nM": "2.48", "empty controls": "7 of 9 (4.54)"}

As a blank, each scFv also met three strains without target: over library AAYL52, 28% of these pairings were detected, typically at 3.91 and seldom below 2.90. Also given: how often the same scFv was detected with the empty control strains, with their mean in brackets. For reference, the parent read 2.31 as the reference entry and 2.25 as a member of this library.